Tested on: human red blood cells
Assay: Hemolysis assay
Assay type: cell-based
Settings: 200 μg/mL, 1 hour at 37° C., normalized to Triton X-100
Experimental: The hemolytic activity of BmKn2, dBmKn2, Kn2-7, dKn2-7, and melittin was assessed using human red blood cells (RBCs). The RBCs were prepared from human whole blood (BioreclamationIVT, Westbury, N.Y., USA) according to a previous report (Evans et al, J. Vis. Exp. (73), 50166, doi:10.3791/50166 (2013)). In brief, human whole blood was centrifuged, and the RBCs were washed with PBS 3-4 times and then diluted 1:20 of the original volume in PBS. Peptides at various concentrations from 0-400 μg/mL in PBS were mixed with an equal volume of the diluted RBCs in a 96-well microtiter plate and allowed to incubate for 1 hour at 37° C. The plate was then centrifuged at 500 g for 5 minutes and 100 μL of the supernatant was transferred to a 96-well, transparent, flat-bottomed plate. Sample absorbances were read at 490 nm using a BioTek Synergy HT plate reader (BioTek, Winooski, Vt.). PBS was used as a negative control (blank), and 1% Triton X-100 was used as a positive control for 100% hemolysis. The percent hemolysis for the unknown samples was calculated according to the following equation: […]

Compound: CC[C@H](C)[C@H](NC(=O)CN)C(=O)NCC(=O)N[C@@H](C)C(=O)N[C@H](C(=O)N[C@@H](CC(C)C)C(=O)N[C@@H](CCCCN)C(=O)N[C@H](C(=O)N[C@@H](CC(C)C)C(=O)N[C@H](C(=O)N[C@H](C(=O)NCC(=O)N[C@@H](CC(C)C)C(=O)N1CCC[C@H]1C(=O)N[C@@H](C)C(=O)N[C@@H](CC(C)C)C(=O)N[C@H](C(=O)N[C@@H](CO)C(=O)N[C@@H](Cc1c[nH]c2ccccc12)C(=O)N[C@H](C(=O)N[C@@H](CCCCN)C(=O)N[C@@H](CCCNC(=N)N)C(=O)N[C@@H](CCCCN)C(=O)N[C@@H](CCCNC(=N)N)C(=O)N[C@@H](CCC(N)=O)C(=O)N[C@@H](CCC(N)=O)C(N)=O)[C@@H](C)CC)[C@@H](C)CC)[C@@H](C)O)[C@@H](C)O)C(C)C)C(C)C [melittin, reference compound]
- hemolytic rates: ~100%

From US11524051B2, “Methods of treating fungal infections” (United States of America as represented by the Secretary of …, priority 2017, dated 2022)
